# Yeast mating assay B: variants of the scFv Ab-14

All variants were tested on one target, the spike HR2 peptide PDVDLGDISGINAS (SARS-CoV-2).

Each scFv is VH, a (GGGGS)3 linker, VL, as in the parent Ab-14, and differs from it in the CDRs of the light chain only.
VH: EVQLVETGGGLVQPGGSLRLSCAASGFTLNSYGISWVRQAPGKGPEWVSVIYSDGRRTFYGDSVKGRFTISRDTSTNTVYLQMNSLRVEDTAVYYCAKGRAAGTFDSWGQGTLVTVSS
VL: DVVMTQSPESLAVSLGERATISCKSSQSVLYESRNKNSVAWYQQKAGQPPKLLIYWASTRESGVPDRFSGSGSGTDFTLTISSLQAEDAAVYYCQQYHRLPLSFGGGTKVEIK

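The variants were designed computationally from a first round of random CDR variants and then made and measured. Group labels follow the data file (En: ensemble of fine-tuned language models; GP: Gaussian process model; HC: hill climbing; Gen: genetic algorithm; Gibbs: Gibbs sampling; a sequence that several methods proposed may carry one label only). The scFvs were displayed on barcoded MATa yeast, the peptide on MATalpha yeast. After mating in shaken culture at 30 °C for 16 h, diploids were selected and their barcode pairs sequenced. A regression on co-assayed BCL2-family reference pairs converts the normalised counts of each replicate to an apparent Kd. The assay was run in six technical replicates.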

Variants are written as CDR1, CDR2 and CDR3 of the light chain (limits as in the source). Parent: KSSQSVLYESRNKNSVA, WASTRES, QQYHRLPLS. This list holds designs with more than six substitutions. Each Kd is an estimate from the mating assay, the geometric mean of the replicates in which the pair was seen; lower is stronger. Where no diploid with the target was found in any replicate, the entry reads "nd": below detection, most likely a poor binder, though not proof of it.

For MLSDTVMQGSYSRNSVA / QESTRAD / QQYHHLPLS [En_HC], the assay gave 2.7 nM (6 of 6 replicates).
For RIQMGDLEGRTAWNSIA / DGEEIYR / QQYVRLPLY [En_Gibbs], the assay gave 56 nM (6 of 6 replicates).
For MISDLTMYGSRNVNSVA / DLSTRGI / QQYHRLPLS [En_HC], the assay gave 780 pM (6 of 6 replicates).
For MVNQIMDHLSKNTNNVA / ETTTREE / QQYDRLPLS [En_Gen], the assay gave 6.0 nM (6 of 6 replicates).
For RMEWHNSGATEAKNSMA / GVEHRAN / QQYDRLPLE [En_Gibbs], the assay gave 4.0 nM (6 of 6 replicates).
For KITQILFPYGNSWHSVA / NANTLAA / QQYYMLPLM [En_Gibbs], the assay gave 6.1 nM (6 of 6 replicates).
For IISQVMNTLTRHGNNVA / DLAERED / QQYFRLPLS [En_Gen], the assay gave nd (0 of 6 replicates).
For IFSQSVMMGNMTRNSVA / QAQERFN / QQYDRLPLI [En_HC], the assay gave 38 nM (6 of 6 replicates).
For ALSQSADMTSRNVNSVA / DLTTREN / QQYHRLPLS [En_HC], the assay gave 4.0 nM (6 of 6 replicates).
For KVSASMAFLSRNRNSVA / DNSTRGS / QQYHRLPLS [En_HC], the assay gave 13 nM (6 of 6 replicates).
For KLSQSQEYESRNKNSVA / DATQRLS / QQYHRLPLS [GP_Gibbs], the assay gave 410 pM (6 of 6 replicates).
For HVEHASLLSNATMNSVA / NEACLAD / QQYFRLPLA [En_Gibbs], the assay gave 3.0 nM (6 of 6 replicates).
For HISPSFMVESRLKNSVA / QTETREQ / QQYDRLPLS [En_HC], the assay gave 3.3 nM (6 of 6 replicates).
For QLSMITGHQLMSKDNVA / EMETREN / QQYDRLPLS [En_Gen], the assay gave 28 nM (6 of 6 replicates).
For QVQAFNEHEKDQTQAMA / EATMRDA / QQYERLPLS [En_Gibbs], the assay gave 3.4 nM (6 of 6 replicates).
For TGNVELAYGVHEMNNVA / DGDQKED / QQYYRLPLA [En_Gibbs], the assay gave 14 nM (6 of 6 replicates).
For MISDMGNHDSRMQNSVA / NNSTREA / QQYHRLPLS [En_HC], the assay gave 84 nM (6 of 6 replicates).
For MISQLMNMGQFAINSVA / QASIRNA / QQYDRLPLT [En_Gen], the assay gave 22 nM (6 of 6 replicates).
For HMSMLTLQGMRHRNSVA / QMTTREK / QQYDHLPLS [En_Gen], the assay gave 85 nM (6 of 6 replicates).
For KIGMTLNQLMHKKNNVA / DLVERET / QQYFRLPLS [En_Gen], the assay gave 4.0 nM (6 of 6 replicates).
For KISMLSENQLKNKNSVA / ELVTRLN / QQYNRLPLS [En_Gen], the assay gave 7.2 nM (6 of 6 replicates).
For KISQMVRVGSTASNSIA / EEVTRAK / QQYHRLPLA [En_Gen], the assay gave 3.3 nM (6 of 6 replicates).
For LVSQQNLYEDRNKNSVA / NASQRLL / QQYHRLPLS [GP_Gibbs], the assay gave 1.7 nM (6 of 6 replicates).
For KLSQSNGYESRLKNNVA / NASTRLE / QQYHRLPLS [GP_Gibbs], the assay gave 1.1 nM (6 of 6 replicates).
For ILSDHAVNQYDEADNIA / DKTETAV / QQYARLPLS [En_Gibbs], the assay gave 25 nM (6 of 6 replicates).
For KLQWSNLYQSRNKNSVA / QASTRMM / QQYHRLPLS [GP_Gibbs], the assay gave 9.7 nM (6 of 6 replicates).
For SFSQSVLYESVHKNNVA / QTSTREE / QQYDHLPLS [En_HC], the assay gave 840 pM (6 of 6 replicates).
For KFAEQIMHVYQGANAIA / DATNKSA / QQYLRLPLM [En_Gibbs], the assay gave 5.3 nM (6 of 6 replicates).
For HVSSMDMTDGGIINSVA / GDKETER / QQYMRLPLS [En_Gibbs], the assay gave 760 nM (1 of 6 replicates).
For KLEQQWEYESRNSNNVA / AASTRED / QQYHRLPLS [GP_Gibbs], the assay gave 450 pM (6 of 6 replicates).
For QVEDIKMKGNDFGDSVA / ETNARYA / QQYFRLPLA [En_Gibbs], the assay gave 6.2 nM (6 of 6 replicates).
For TISESTYWESRNKNSVA / QTSTREE / QDYDRLPLS [En_HC], the assay gave 4.3 nM (6 of 6 replicates).
For KLLQEVTGHSRHRNSVA / HNSTRED / QQYDRLPLS [En_HC], the assay gave 310 nM (3 of 6 replicates).
For NLMSGMSELSVWKYSIA / SASIRGS / QQYFRLPLL [En_Gibbs], the assay gave 4.3 nM (6 of 6 replicates).
For KLRLMTLTEGYFKNSVA / QASTREN / QSYHRLPLS [En_HC], the assay gave 6.2 nM (6 of 6 replicates).
For KQSQSGPYEDRNFNSVA / HASYRIS / QQYHRLPLS [GP_Gibbs], the assay gave 43 nM (6 of 6 replicates).
For SFPSEMDQQQEQVNSIA / GEQHTAR / QQYGRLPLS [En_Gibbs], the assay gave 35 nM (6 of 6 replicates).
For KLSGLMASSKFAKQNVA / ENNTREK / QQYERLPLS [En_Gen], the assay gave nd (0 of 6 replicates).
For MLSDLVKMGSRNTNSVA / DNSTRGS / QQYDRLPLA [En_HC], the assay gave 200 nM (6 of 6 replicates).

Excerpt, the final 4 entries:

CDR-L1	CDR-L2	CDR-L3	group	apparent Kd	seen in
KQSQSGPYEDRNFNSVA	HASYRIS	QQYHRLPLS	GP_Gibbs	43 nM	6/6
SFPSEMDQQQEQVNSIA	GEQHTAR	QQYGRLPLS	En_Gibbs	35 nM	6/6
KLSGLMASSKFAKQNVA	ENNTREK	QQYERLPLS	En_Gen	nd	0/6
MLSDLVKMGSRNTNSVA	DNSTRGS	QQYDRLPLA	En_HC	200 nM	6/6

Three control strains display no target. For all light chain designs, 4% of the pairings with them gave a signal, with a median of 430 nM and one signal in twenty below 38 nM, so weak values seen in few replicates may be background. Values of this round are not directly comparable with the first-round values of the same sequences. In the paper, a design with two or fewer of six values counts as a poor binder.

The measurements come from Li et al. 2023 (doi:10.1038/s41467-023-39022-2) through the FLAb antibody collection.